From US7435736B2, “Substituted 1-piperidin-4-yl-4-azetidin-3-yl-piperazine derivatives and their use as neurokinin antagonists” (Janssen Pharmaceutica, N.V., priority 2002, dated 2008)

Protein sequences, listed by entry. Tags and fused reporters are not part of them.
UniProt P29371, whole entry: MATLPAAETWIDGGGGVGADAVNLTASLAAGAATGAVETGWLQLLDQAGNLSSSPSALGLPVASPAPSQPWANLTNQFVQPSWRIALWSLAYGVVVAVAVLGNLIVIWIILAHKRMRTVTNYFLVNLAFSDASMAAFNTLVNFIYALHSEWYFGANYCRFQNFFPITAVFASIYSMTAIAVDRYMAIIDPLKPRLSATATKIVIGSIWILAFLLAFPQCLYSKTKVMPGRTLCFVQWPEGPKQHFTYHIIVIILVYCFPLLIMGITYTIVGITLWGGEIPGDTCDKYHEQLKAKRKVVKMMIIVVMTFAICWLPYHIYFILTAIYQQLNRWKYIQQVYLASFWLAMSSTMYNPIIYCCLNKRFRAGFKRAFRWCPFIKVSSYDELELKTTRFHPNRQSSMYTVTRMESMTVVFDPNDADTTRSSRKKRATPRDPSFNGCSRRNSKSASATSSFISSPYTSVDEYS
UniProt P21452, whole entry: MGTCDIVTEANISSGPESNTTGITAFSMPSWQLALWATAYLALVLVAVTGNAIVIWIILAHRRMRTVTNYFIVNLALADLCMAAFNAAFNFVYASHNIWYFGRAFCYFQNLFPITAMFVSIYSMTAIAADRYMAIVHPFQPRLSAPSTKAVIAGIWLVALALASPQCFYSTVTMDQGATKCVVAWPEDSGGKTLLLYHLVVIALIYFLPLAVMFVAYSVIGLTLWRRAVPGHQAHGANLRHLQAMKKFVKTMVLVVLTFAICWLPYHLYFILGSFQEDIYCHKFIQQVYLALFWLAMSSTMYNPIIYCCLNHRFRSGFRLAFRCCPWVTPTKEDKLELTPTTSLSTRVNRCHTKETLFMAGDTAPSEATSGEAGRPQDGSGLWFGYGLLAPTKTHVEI
UniProt P25103, whole entry: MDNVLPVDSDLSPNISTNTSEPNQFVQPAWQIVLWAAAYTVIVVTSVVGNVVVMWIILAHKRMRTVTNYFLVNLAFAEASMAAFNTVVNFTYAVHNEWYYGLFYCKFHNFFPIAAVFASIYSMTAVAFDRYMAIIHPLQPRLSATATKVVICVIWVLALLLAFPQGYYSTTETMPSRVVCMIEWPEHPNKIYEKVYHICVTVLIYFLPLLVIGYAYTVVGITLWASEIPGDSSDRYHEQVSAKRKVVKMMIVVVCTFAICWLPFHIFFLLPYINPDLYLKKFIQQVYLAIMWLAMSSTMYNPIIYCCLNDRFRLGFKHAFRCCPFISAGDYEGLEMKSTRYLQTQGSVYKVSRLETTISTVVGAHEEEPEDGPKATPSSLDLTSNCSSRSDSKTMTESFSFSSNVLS

Tests used:
h-NK3 = h-NK3 (Homo sapiens, UniProt P29371); assay: Signal transduction (ST), intracellular Ca++ FLIPR, NK3 antagonistic activity
Experimental: (§1) This test evaluates in vitro functional NK1, NK2 and NK3 antagonistic activity. For the measurements of intracellular Ca^++ concentrations the cells were grown on 96-well (black wall/transparent bottom) plates from Costar for 2 days until they reached confluence. The cells were loaded with 2 μM Fluo3 in DMEM containing 0.1% BSA and 2.5 mM probenecid for 1 h at 37° C. They were washed 3× with a Krebs buffer (140 mM NaCl, 1 mM MgCl2×6H2O, 5 mM KCl, 10 mM glucose, 5 mM HEPES; 1.25 mM CaCl2; pH 7.4) containing 2.5 mM probenecid and 0.1% BSA (Ca^++-buffer). The cells were preincubated with a concentration range of antagonists for 20 min at RT and Ca^++-signals after addition of the agonists were measured in a Fluorescence Image Plate Reader (FLIPR from Molecular Devices, Crawley, England). The peak of the Ca^++-transient was considered as the relevant signal and the mean values of corresponding wells were analysed as described below.
(§2) The sigmoidal dose response curves were analysed by computerised curve-fitting, using the GraphPad Program. The EC50-value of a compound is the effective dose showing 50% of maximal effect. For mean curves the response to the agonist with the highest potency was normalised to 100%. For antagonist responses the IC50-value was calculated using non-linear regression. […]

h-NK2 = h-NK2 (Homo sapiens, UniProt P21452); assay: Signal transduction (ST), intracellular Ca++ FLIPR, NK2 antagonistic activity
Experimental: as §1, §2

h-NK1 = h-NK1 (Homo sapiens, UniProt P25103); assay: Signal transduction (ST), intracellular Ca++ FLIPR, NK1 antagonistic activity
Experimental: as §1, §2

CC(C)(C)OC(=O)N1CCC[C@H]1C(=O)N1CC(N2CCN([C@H]3CCN(C(=O)c4cc(C(F)(F)F)cc(C(F)(F)F)c4)[C@H](Cc4ccccc4)C3)CC2)C1
pIC50 h-NK3 (h-NK3): 5.44
pIC50 h-NK2 (h-NK2): 5.71
pIC50 h-NK1 (h-NK1): 7.46
